{
  "sequences": {"note": "Amino acid sequences for entries named in this document (tags omitted).", "UniProt O95180, whole entry": "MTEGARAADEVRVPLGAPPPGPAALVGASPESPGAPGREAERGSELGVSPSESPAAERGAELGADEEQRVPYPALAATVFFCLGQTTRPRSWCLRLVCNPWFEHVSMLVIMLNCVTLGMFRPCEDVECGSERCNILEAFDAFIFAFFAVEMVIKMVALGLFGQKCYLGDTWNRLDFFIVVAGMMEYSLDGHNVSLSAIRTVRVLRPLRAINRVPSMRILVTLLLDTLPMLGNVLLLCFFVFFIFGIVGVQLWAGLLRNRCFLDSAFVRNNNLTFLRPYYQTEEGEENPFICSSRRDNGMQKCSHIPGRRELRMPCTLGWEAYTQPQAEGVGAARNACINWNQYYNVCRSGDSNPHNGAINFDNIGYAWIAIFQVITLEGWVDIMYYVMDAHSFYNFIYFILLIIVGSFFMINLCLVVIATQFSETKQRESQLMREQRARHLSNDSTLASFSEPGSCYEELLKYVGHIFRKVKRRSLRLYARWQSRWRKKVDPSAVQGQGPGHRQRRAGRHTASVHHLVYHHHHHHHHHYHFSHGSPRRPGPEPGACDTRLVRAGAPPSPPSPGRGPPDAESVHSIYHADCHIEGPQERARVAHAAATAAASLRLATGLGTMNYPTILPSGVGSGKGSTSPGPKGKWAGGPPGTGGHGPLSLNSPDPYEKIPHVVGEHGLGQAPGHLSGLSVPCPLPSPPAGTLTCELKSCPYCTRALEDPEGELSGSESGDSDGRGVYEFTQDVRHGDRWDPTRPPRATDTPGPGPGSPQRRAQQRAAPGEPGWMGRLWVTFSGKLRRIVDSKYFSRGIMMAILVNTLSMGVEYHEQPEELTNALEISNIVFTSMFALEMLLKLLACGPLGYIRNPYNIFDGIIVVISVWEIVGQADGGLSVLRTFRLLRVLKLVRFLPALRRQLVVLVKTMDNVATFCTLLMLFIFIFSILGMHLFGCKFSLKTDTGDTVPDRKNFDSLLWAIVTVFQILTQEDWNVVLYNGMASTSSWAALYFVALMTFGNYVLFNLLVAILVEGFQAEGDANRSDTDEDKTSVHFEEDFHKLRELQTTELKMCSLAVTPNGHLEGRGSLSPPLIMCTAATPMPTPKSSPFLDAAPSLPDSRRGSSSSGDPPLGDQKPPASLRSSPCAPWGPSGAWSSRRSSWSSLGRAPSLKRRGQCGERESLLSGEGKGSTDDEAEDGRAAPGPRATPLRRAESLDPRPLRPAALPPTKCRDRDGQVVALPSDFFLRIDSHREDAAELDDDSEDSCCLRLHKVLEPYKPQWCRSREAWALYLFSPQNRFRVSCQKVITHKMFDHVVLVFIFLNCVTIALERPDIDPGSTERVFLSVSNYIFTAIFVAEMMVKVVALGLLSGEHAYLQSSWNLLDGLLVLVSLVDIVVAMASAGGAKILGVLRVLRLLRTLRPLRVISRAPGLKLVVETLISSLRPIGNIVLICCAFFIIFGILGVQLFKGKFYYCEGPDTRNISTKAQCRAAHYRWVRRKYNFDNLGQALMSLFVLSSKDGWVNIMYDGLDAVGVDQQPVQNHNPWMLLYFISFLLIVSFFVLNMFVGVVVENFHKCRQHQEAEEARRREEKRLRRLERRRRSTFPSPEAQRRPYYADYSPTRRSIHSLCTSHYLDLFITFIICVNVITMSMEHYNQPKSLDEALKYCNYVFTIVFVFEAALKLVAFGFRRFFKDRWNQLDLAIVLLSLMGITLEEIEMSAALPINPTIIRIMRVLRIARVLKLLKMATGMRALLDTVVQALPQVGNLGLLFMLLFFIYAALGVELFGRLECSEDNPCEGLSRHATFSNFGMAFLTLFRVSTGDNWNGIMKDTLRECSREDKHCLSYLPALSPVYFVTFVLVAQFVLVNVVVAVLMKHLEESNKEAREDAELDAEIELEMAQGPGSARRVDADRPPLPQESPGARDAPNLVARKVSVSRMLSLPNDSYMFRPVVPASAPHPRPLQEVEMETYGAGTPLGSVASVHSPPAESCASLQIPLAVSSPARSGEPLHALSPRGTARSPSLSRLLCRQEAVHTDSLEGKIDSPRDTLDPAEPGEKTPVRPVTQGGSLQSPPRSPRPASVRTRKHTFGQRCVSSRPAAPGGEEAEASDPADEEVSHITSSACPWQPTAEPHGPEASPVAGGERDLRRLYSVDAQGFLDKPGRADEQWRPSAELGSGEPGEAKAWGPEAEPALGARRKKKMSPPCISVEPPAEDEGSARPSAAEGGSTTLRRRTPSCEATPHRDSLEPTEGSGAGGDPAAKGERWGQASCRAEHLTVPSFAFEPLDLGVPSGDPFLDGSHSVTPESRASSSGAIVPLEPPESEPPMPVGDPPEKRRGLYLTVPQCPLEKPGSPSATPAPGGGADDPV"},
  "source": "patent US9096531B2",
  "about": "“Fused imidazole derivative” (TOA EIYO LTD., priority 2010, dated 2015)",
  "target": "human T-type calcium channels (human Cav3.2) (Homo sapiens, UniProt O95180)",
  "assay": "Intracellular calcium (Fura2 fluorescence) assay in HEK293 cells stably expressing human Cav3.2",
  "conditions": "Fura2 fluorescence ratio after calcium chloride addition, 15 min with compound",
  "data": [
    {"compound": "Cc1ccc(COc2ccc(C(O)c3nc4cc(F)cnc4[nH]3)cc2)cc1", "note": "(stereo not shown)", "values": [
      {"measurement": "IC50", "result": 140, "unit": "nM"}
    ]}
  ]
}
